{"source": "patent US11306124B2", "about": "“Agonist agents of CD47 inducing programmed cell death and their use in the treatments of diseases associated with defects in programmed cell death” (SORBONNE UNIVERSITE, priority 2016, dated 2022)", "tested_on": "HCT-116 cells", "assay_type": "cell-based", "settings": "human, 2 h", "experimental": "2.2.2. Cell Death Analysis by Flow Cytometry\nTo detect possible apoptotic processes, cells were seeded in 35 mm dishes and cultured in media containing each tested cyclic peptide for 2 hours following procedure A or B.\nProcedure B: Peptides were incubated for 2 hours on HCT-116 cells. Superkiller Trail (ALX-201-115C-010) was used as a positive pro-apoptotic control. Cells were analyzed by cytofluorometry using FITC Annexin V apoptosis detection kit with 7-AAD from BIOLEGEND (BLE640922).", "note": "Where two headings read alike, the source gives them in different places.", "data": [{"smiles": "CSCC[C@@H]1NC(=O)[C@@H](C(C)C)NC(=O)[C@H](C(C)C)NC(=O)[C@H](Cc2ccc(O)cc2)NC(=O)[C@H](Cc2ccccc2)NC(=O)[C@H](CCCNC(=N)N)NC(=O)[C@H](CO)NC(=O)[C@@H]2CCCN2C(=O)[C@H]2CCCN2C(=O)[C@H](CCC(N)=O)NC(=O)[C@H](Cc2ccc(O)cc2)NC(=O)CNC(=O)[C@H](Cc2ccccc2)NC(=O)[C@H](C(C)C)NC(=O)[C@H](Cc2ccccc2)NC(=O)CNC(=O)[C@H](C)NC(=O)[C@@H](Cc2ccc(O)cc2)NC(=O)[C@H](CCCCN)NC(=O)[C@H](Cc2c[nH]c3ccccc23)NC1=O", "note": "[PKTD9, —Y—A—G—F—V—F—G—Y—Q—p—P—S—R—F—Y—V—V—M—W—K—]", "values": [{"measurement": "Viable, Mean (%)", "setting": "12.5 μM", "result": 82.19, "unit": "%"}, {"measurement": "Viable, Mean (%)", "setting": "25 μM", "result": 79.38, "unit": "%"}, {"measurement": "Viable, Mean (%)", "setting": "50 μM", "result": 70.52, "unit": "%"}]}]}
